Source: PubChem BioAssay (EPA / NIEHS)
The list shows a part of the results, in another mix than the full data. Active and inactive are the calls of the source. Rule for the calls: active = hit-call score of the fitted dose curve at least 0.9, where 1 is the maximum; inactive = score below 0.9.

By UniProt entry, the sequences of proteins in these tests, tags left out.
UniProt Q16665, whole entry: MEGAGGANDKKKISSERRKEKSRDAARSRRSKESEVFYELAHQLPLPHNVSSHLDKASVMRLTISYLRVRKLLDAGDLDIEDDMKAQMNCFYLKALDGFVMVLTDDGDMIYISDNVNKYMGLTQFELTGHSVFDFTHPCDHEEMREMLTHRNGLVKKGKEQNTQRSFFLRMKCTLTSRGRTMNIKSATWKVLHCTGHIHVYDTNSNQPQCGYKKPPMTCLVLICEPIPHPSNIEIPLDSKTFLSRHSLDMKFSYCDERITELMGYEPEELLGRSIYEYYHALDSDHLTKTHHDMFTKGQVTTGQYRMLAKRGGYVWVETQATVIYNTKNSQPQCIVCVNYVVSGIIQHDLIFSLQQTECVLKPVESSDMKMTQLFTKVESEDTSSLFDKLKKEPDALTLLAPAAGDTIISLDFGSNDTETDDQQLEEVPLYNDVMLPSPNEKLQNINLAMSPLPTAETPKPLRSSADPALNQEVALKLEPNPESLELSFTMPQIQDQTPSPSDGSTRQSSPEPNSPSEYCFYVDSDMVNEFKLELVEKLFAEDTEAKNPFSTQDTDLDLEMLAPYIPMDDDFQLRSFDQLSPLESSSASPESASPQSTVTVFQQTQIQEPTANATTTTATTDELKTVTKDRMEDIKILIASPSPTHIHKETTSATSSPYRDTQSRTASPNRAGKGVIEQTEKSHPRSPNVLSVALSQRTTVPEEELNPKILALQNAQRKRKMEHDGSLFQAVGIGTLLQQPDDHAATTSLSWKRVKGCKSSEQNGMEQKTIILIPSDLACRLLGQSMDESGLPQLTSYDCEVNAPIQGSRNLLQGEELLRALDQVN

The molecules below were run against Hypoxia-inducible factor 1-alpha (Homo sapiens) (UniProt Q16665) (assay: ATG_HIF1a_CIS: Attagene CIS-FACTORIAL HepG2 Assay for human Hypoxia Inducible Factor 1 (HIF1A) (AID 2282951)). Details: HepG2 Attagene cis-factorial HIF1a reporter transcription; actives raise or lower the signal.
Protocol: ATG_CIS is a cell-based, multiplexed-readout assay that uses HepG2, a human liver cell line, with measurements taken at 24 hours after chemical dosing in a 24-well plate.ATG_HIF1a_CIS is one of 52 assay component(s) measured or calculated from the ATG_CIS assay. It is designed to make measurements of mRNA induction, a form of inducible reporter, as detected with fluorescence intensity signals by Reverse transcription polymerase chain reaction (RT-PCR) and Capillary electrophoresis technology.Data from the assay component ATG_HIF1a_CIS was analyzed into 1 assay endpoint. This assay endpoint, ATG_HIF1a_CIS, was analyzed with bidirectional fitting relative to DMSO as the negative control and baseline of activity. Using a type of inducible reporter, measures of mRNA for gain or loss-of-signal activity can be used to understand the reporter gene at the transcription factor-level as they relate to the gene HIF1A. Furthermore, this assay endpoint can be referred to as a primary readout, because this assay has produced multiple assay endpoints where this one serves a reporter gene function. To generalize the intended target to other relatable targets, this assay endpoint is annotated to the dna binding intended target family, where the subfamily is basic helix-loop-helix protein.
Human liver HepG2 cells are transiently transfected with multiple reporter transcription units (MRTUs) in 6-well plates using FuGene 6 reagent (Roche; 3 ml FuGene/1 mg DNA). The MRTU constructs are regulated by a cis-regulating element (promoter). […] A major difference between the CIS and TRANS system is that in CIS activities of endogenous TFs are measured, whereas the TRANS assay evaluates changes in activities of exogenous, chimeric NR-Gal4 proteins. […] At the end of 24 hour incubation, total RNA was isolated using TriZol reagent (Invitrogen). The isolated RNA is then reverse-transcribed using oligo(dT) primer and Mo-MLV reverse transcriptase (Invitrogen) with DNAse I (Ambion) treatment for 30 min. The one-tenth of the produced cDNA was amplified by PCR using Taq DNA polymerase (Invitrogen) and two reporter sequence-specific primers. The PCR products were fluorescently labeled by primer extension with 6-arboxyfluorescein (6-FAM) 5'-labeled reporter sequence-specific primer (2 min at 95 C, 20 s at 68 C and 10 min at 72 C) and these products were digested with 5U of HpaI (New England Biolabs) for 2h at 37 C. The fragments were purified using Qiaquick PCR columns (Qiagen), analyzed on an ABI 3130xL genetic analyzer (Applied Biosystems) with peak positions identified by using a set of X-rhodamine (ROX)-labeled MapMarker1000 molecular weight standards (BioVentures). The raw capillary electrophoresis data was processed using Attagraph software (Attagene).
For `Cc1cccc([N+](=O)[O-])c1[N+](=O)[O-]`, the outcome was “inactive”.
With `Cc1ccc([N+](=O)[O-])c([N+](=O)[O-])c1` the outcome was “inactive”.
For `O=[N+]([O-])OCC(CO[N+](=O)[O-])(CO[N+](=O)[O-])CO[N+](=O)[O-]`, the outcome was “inactive”.
With `COc1ccc([N+](=O)[O-])cc1[N+](=O)[O-]` the outcome was “inactive”.
With `Cc1ccc([N+](=O)[O-])cc1[N+](=O)[O-]` the outcome was “inactive”.
`CC(C)N(CCO)C(C)C` was tested, and the outcome was “inactive”.
With `Cc1c([N+](=O)[O-])cccc1[N+](=O)[O-]` the outcome was “inactive”.
In the case of `N#CBr`, the outcome is reported as “inactive”.
`CN(C)CCCl` was tested, and the outcome was “inactive”.
`COP(C)(=O)OC` was tested, and the outcome was “inactive”.
With `CC(C)OP(C)(=O)OC(C)C` the outcome was “inactive”.
`O=[N+]([O-])c1cccc([N+](=O)[O-])c1` was tested, and the outcome was “inactive”.
